Laboratory results reported in patent US20090053807A1 (Novo Nordisk A/S, priority 1998, published 2009).
pIC50, pKd: −log10 of the molar value.

Protein sequences, listed by entry. Tags and fused reporters are not part of them. Residues count along the entry.
UniProt P08069, 741-935 limits assumed: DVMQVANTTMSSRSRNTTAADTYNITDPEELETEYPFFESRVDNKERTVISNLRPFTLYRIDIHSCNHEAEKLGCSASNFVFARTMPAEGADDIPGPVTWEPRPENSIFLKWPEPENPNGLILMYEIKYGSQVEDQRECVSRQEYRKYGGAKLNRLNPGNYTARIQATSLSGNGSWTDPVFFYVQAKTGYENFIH
UniProt P08069, 31-736 limits assumed: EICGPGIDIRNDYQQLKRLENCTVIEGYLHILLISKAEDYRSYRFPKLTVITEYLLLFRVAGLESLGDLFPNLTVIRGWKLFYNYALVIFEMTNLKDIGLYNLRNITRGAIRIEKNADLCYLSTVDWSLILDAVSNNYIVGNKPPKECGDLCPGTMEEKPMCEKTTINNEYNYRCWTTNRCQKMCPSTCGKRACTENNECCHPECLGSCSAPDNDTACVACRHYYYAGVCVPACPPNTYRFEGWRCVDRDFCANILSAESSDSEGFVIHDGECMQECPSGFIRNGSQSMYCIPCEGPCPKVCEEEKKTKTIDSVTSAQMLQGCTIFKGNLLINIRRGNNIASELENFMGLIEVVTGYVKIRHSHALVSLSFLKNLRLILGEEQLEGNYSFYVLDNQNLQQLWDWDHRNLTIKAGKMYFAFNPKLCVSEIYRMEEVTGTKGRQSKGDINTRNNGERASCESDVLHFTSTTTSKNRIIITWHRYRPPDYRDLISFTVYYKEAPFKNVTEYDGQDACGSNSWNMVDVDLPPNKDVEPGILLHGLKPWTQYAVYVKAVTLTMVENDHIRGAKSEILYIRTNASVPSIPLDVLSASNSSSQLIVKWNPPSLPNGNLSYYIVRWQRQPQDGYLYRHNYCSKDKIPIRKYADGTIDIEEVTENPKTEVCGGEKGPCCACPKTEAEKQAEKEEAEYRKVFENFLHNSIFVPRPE
UniProt P06213, 28-758 limits assumed: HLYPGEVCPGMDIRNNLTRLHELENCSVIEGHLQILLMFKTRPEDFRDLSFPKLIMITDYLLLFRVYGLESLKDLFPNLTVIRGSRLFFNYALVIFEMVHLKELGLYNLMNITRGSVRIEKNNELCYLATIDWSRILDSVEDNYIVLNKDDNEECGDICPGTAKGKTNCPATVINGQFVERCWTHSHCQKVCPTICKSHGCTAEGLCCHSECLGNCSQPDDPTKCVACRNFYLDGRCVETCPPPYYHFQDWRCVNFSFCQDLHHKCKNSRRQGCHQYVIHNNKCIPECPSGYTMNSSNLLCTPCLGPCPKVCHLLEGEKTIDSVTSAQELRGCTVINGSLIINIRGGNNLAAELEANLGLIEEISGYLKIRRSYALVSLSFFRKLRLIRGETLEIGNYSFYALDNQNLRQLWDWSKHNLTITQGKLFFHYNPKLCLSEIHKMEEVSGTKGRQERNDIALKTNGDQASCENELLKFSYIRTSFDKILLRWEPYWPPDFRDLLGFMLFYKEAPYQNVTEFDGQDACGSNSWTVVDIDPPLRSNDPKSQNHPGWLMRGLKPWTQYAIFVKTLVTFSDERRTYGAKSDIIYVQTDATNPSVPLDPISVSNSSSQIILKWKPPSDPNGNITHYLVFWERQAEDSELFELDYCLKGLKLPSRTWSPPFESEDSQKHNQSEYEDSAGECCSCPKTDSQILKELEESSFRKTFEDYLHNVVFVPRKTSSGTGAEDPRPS
UniProt P06213, 763-1382 limits assumed: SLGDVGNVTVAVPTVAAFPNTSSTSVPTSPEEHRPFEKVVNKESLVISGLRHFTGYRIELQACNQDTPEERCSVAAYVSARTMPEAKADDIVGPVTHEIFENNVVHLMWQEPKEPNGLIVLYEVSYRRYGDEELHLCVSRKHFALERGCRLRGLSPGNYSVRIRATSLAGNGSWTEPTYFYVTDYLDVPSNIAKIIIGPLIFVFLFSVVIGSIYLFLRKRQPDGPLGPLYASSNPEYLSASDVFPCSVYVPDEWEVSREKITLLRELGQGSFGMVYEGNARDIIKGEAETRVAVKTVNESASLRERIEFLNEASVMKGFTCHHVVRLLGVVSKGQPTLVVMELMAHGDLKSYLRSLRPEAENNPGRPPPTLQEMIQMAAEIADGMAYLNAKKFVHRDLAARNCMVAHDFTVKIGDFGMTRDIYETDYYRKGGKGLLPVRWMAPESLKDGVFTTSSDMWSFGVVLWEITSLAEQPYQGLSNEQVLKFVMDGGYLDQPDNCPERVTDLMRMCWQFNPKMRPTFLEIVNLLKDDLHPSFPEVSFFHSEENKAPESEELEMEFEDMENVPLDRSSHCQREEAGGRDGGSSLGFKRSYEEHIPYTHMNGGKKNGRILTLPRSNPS

Legend:
[1] = molecular target: His-tagged soluble recombinant human IGF-1R (srhIGF-1R-his) (Homo sapiens, UniProt P08069); assay: ALPHAScreen binding assay, competition with b-hIGF-1; details: Table 29
[2] = molecular target: T1, human insulin receptor (HIR) (Homo sapiens, UniProt P06213); assay: Insulin receptor binding, competition with 125I-labeled insulin (radio-receptor assay); details: HIR binding affinity of synthetic peptides
T1 construct: made in house

Substance | pIC50 [1] | pKd [2]
GRVDWLQRNANFYDWFVAELG [Peptide S175] | 5.15 | 
(ESFYDWFERQLGK)2-23 [Peptide S415] |  | 7.00
